In BigSolDB 2.1:

CC[C@H]1OC(=O)C[C@@H](O)[C@H](C)[C@@H](O[C@@H]2O[C@H](C)[C@@H](O[C@H]3C[C@@](C)(O)[C@@H](O)[C@H](C)O3)[C@H](N(C)C)[C@H]2O)[C@@H](CC=O)C[C@@H](C)C(=O)/C=C/C(C)=C/[C@@H]1CO[C@@H]1O[C@H](C)[C@@H](O)[C@@H](OC)[C@H]1OC.O=C(O)[C@H](O)[C@@H](O)C(=O)O
solubility (mole fraction)
Settings	293.15 K	298.15 K	303.15 K	308.15 K	313.15 K	318.15 K	323.15 K
in THF	0.00072	0.00084	0.00092	0.00103	0.0012	0.00134	0.00151
in methanol	0.00457	0.00508	0.00579	0.00638	0.00722	0.00841	0.00993
